Biological target: COX-1 (Homo sapiens, UniProt P23219)
Test: COX-1 assay
Type: biochemical

By UniProt entry, the sequences of proteins in these tests, tags left out. Residues count along the entry.
UniProt P23219, 24-599: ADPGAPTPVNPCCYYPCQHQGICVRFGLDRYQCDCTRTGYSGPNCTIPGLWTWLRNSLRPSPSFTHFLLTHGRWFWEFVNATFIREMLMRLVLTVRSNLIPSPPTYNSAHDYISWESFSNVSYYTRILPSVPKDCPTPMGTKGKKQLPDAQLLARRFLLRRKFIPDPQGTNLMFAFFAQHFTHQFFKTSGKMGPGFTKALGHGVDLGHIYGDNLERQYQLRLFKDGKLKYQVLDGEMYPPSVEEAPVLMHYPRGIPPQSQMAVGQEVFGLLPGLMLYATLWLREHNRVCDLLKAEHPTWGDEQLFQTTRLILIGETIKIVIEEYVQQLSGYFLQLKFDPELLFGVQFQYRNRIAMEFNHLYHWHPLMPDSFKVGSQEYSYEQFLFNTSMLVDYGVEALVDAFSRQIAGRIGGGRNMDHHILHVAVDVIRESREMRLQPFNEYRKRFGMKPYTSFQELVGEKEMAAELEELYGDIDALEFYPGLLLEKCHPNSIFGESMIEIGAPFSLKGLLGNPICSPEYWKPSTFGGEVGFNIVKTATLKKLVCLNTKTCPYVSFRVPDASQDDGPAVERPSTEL

`Oc1ccc(/C=C/c2cc(O)cc(O)c2)cc1` showed an IC50 of 0.35 ± 0.1 µM.
